Reference: publication PMC4805166, “Synthetic Cyclolipopeptides Selective against Microbial, Plant and Animal Cell Targets by Incorporation of D-Amino Acids or Histidine” (PLoS ONE, 2016)

Test system: erythrocyte suspensions of horse blood
Conditions: horse erythrocytes 5% vol/vol, TRIS buffer pH 7.2, 1 h at 37°C, absorbance 540 nm, relative to melittin 100 μM, ± confidence interval (α = 0.05)
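Also: Read-out is hemoglobin release into the supernatant, with a buffer-only blank subtracted as the 0% baseline.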

c(KKLKK(CO-C6H13)FKKLQ) [BPC592]
Hemolysis (%) 150 µM (150 µM peptide): 100 ± 4% | Hemolysis (%) 250 µM (250 µM peptide): 98 ± 6%
